We go through six compounds from patent publication US20260384421A1, “NOVEL COMPOUNDS THAT CAN BE USED AS THERAPEUTIC AGENTS” (published 2026).

The subject of one assay is MDA-MB-231 cells. Briefly: alamarBlue proliferation assay with MDA-MB-231 cells (glucose-free Leibovitz's L-15 medium).
For a further assay, the system named is TANQUE cells. The assay is described as follows: alamarBlue proliferation assay with TANQUE cells. The following applies: read-out: Activity on TANOUE: IC50, RPMI 1640 medium, 10% FBS.
The next assay has as its system NB-4 cells. The assay is described as follows: alamarBlue proliferation assay with NB-4 cells. The following applies: read-out: Activity on NB-4: IC50, RPMI 1640 medium, 10% FBS.
The test system of another assay is HCT-116 cells. Briefly: alamarBlue proliferation assay with HCT-116 cells. The following applies: read-out: Activity on HCT-116: IC50, McCoy's 5A medium, 10% FBS. Background: Resazurin is reduced to fluorescent resorufin, in cell work by metabolically active cells.
The next assay concerns BHY cells. The assay is described as follows: alamarBlue proliferation assay with BHY cells. The conditions noted are these: read-out: Activity on BHY: IC50, DMEM medium, 10% FBS.
The next assay concerns A-549 cells. The assay is described as follows: alamarBlue proliferation assay with A-549 cells. The conditions noted are these: read-out: Activity on A-549: IC50, DMEM medium, 10% FBS.
The test system of a further assay is LL/2 cells. Briefly: alamarBlue proliferation assay with LL/2 cells. The following applies: read-out: Activity on LL/2: IC50; LL/2 murine Lewis lung carcinoma cells, DMEM medium, 10% FBS.
The mark [1] stands for this setting: read-out: Activity on MDA-MB-231 (IC50), glucose-free Leibovitz's L-15, 10% FBS, day 5, alamarBlue.
Setting [2] is: read-out: Activity (MDA), MDA-MB-231 cells, antiproliferative activity, class by IC50.

Read-outs that look alike come from different tables or passages of the source. A value given as a limit tells only on which side of the number the result lay.

As to `O=C(c1ccc(Oc2ccc(C3CCC4(CC3)OCCO4)cc2CO)cc1)N1CCN(Cc2ccc([N+](=O)[O-])cc2)CC1`, the IC50 with MDA-MB-231 cells (setting [1]), in the assay with TANQUE cells, in the assay with NB-4 cells, in the assay on HCT-116 cells, in the assay on BHY cells and with A-549 cells was at most 200 nM throughout. The IC50 with LL/2 cells was at most 200 nM.
As to `COC1CCC(c2ccc(Oc3ccc(C(=O)N4CCN(Cc5ccc(C(F)(F)F)cc5)CC4)cc3)c(CO)c2)CC1` (centres unmarked), the IC50 in the assay with MDA-MB-231 cells (setting [2]) is below 1000 nM; in the assay with MDA-MB-231 cells (setting [1]), at most 200 nM; in the assay on TANQUE cells, at most 200 nM; in the assay with NB-4 cells it was at most 200 nM; in the assay with HCT-116 cells, at most 200 nM; in the assay on BHY cells, at most 200 nM. Besides, the IC50 in the assay on A-549 cells and with LL/2 cells was at most 200 nM each time.
With `O=C(c1ccc(Oc2ccc(C3CCC4(CC3)OCCO4)cc2CO)cn1)N1CCN(Cc2ccccc2)CC1`, the IC50 in the assay on MDA-MB-231 cells (read-out: Activity (MDA): antiproliferative activity on MDA-MB-231 cells, IC50 category, MDA-MB-231 cells cultivated in glucose-free Leibovitz's L-15 medium) is below 1000 nM; in the assay with MDA-MB-231 cells (setting [1]), at most 200 nM; in the assay with TANQUE cells it was at most 200 nM; in the assay on NB-4 cells, at most 200 nM; in the assay on HCT-116 cells it was at most 200 nM; with BHY cells, at most 200 nM. In addition, the IC50 in the assay on A-549 cells is at most 200 nM; in the assay with LL/2 cells, at most 5000 nM.
With `COC(=O)c1ccc(CN2CCN(C(=O)c3ccc(Oc4ccc(C5CCC6(CC5)OCCO6)cc4CO)cc3)CC2)cc1`, the IC50 with MDA-MB-231 cells (setting [2]) was below 1000 nM; in the assay on MDA-MB-231 cells (setting [1]), at most 200 nM; in the assay on TANQUE cells, at most 200 nM; in the assay with NB-4 cells, at most 200 nM; in the assay with HCT-116 cells it was at most 200 nM; with BHY cells it was at most 200 nM. Further, the IC50 with A-549 cells and with LL/2 cells was at most 200 nM each time.
In the case of `COC1CCC(c2ccc(Oc3ccc(C(=O)N4CCN(Cc5ccc(Cl)cc5)CC4)cc3)c(CO)c2)CC1` (centres unmarked), the IC50 was below 1000 nM with MDA-MB-231 cells (setting [2]); at most 200 nM with MDA-MB-231 cells (setting [1]); at most 200 nM in the assay with TANQUE cells; at most 200 nM in the assay on NB-4 cells; at most 200 nM in the assay on HCT-116 cells; at most 200 nM with BHY cells. The IC50 in the assay with A-549 cells and with LL/2 cells was at most 200 nM in each case.
On to `O=C(c1ccc(Oc2ccc(C3CCC4(CC3)SCCCS4)cc2CO)cn1)N1CCN(Cc2ccc(Cl)cc2)CC1`, for which the IC50 with MDA-MB-231 cells (setting [2]) was below 1000 nM; in the assay with MDA-MB-231 cells (setting [1]), at most 200 nM; in the assay with TANQUE cells, at most 200 nM; in the assay with NB-4 cells, at most 200 nM; in the assay with HCT-116 cells, at most 200 nM; in the assay on BHY cells, at most 200 nM. The IC50 in the assay with A-549 cells and in the assay on LL/2 cells was at most 200 nM throughout.
